Tested on: Mice
Assay: LD50 comparison in mice
Settings: single oral or parenteral dose, 14-day observation

Row | SMILES | LD50
1 | CCOP(=O)(NC(=S)Nc1ccccc1NC(=S)NP(=O)(OCC)OCC)OCC | 52 mg/kg
2 | CCOP(=O)(NC(=S)Nc1ccc(NC(=S)NP(=O)(OCC)OCC)c(Cl)c1)OCC | 68 mg/kg
3 | CCOP(=O)(NC(=S)Nc1ccc(NC(=S)NP(=O)(OCC)OCC)cc1)OCC | > 240 mg/kg
4 | CCOP(=O)(NC(=S)Nc1ccc(OC)cc1NC(=S)NP(=O)(OCC)OCC)OCC | 52 mg/kg
5 | CCOP(=O)(NC(=S)Nc1ccc(NC(=S)NP(=O)(OCC)OCC)c(OC)c1)OCC | 85 mg/kg
6 | CCOP(=O)(NC(=S)Nc1ccc(Cl)cc1NC(=S)NP(=O)(OCC)OCC)OCC | 30 mg/kg
